RAD52 anneal inh = RAD52 DNA annealing inhibitors, primary screen, biochemical, FRET, single point, set 2; DNA repair protein RAD52 homolog (Homo sapiens), P43351; recombinant RAD52 DNA annealing, FRET fluorescence; inhibition, % at 18.7 µM; 360,000 compounds, 0.46% hits; AID 651710, 2012;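 active = every replicate showing at least 50% inhibition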
INS-1E GSIS act = GLuc luminescence reporter in INS-1E cells, primary screen for activators of glucose-dependent secretion of insulin. INS-1E GLuc reporter insulin secretion, 2-3 h. activation, % at 16.6 µM. 370,000 compounds, 0.61% hits;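 active = lowest replicate activation of at least 40%, so every replicate reaches that level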
RAD54 inh = inhibitors of human RAD54 branch migration, primary screen, biochemical, fluorescence, single point; DNA repair and recombination protein RAD54-like (Homo sapiens), Q92698; AID 602329, 2012; 360,000 compounds, 0.14% hits; inhibition, % at 10.4 µM; RAD54 Holliday junction branch migration, FAM/BHQ fluorescence;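 active = mean normalized replicate activity at least 40 and at least half of replicates scoring 40 or more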;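 note: inhibitors cause a drop in the FAM fluorescence signal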
Casp6 inh = human caspase-6 inhibitors, primary screen, biochemical, VEID-R110 fluorescence, single point, set 2. 350,000 compounds, 0.53% hits. purified caspase-6, Z-VEID-R110 cleavage fluorescence. AID 686996, 2013. inhibition, % at 12.5 µM. P55212;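 active = mean inhibition across replicates at least about 35%, with every replicate also reaching that limit, limit read from the data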
PglD inh = C. jejuni PglD acetyltransferase inhibitors, primary screen, biochemical, DTNB colorimetric, single point | UDP-N-acetylbacillosamine N-acetyltransferase PglD (Campylobacter jejuni) | purified PglD enzyme, DTNB colorimetric CoA detection | inhibition, % at 12.5 µM | 360,000 compounds, 0.098% hits | AID 602405, 2012; in the data active = inhibition above about 16%, passing the limit was not always enough
Yeast UUG start = modulators of start codon recognition fidelity in yeast. S. cerevisiae UUG-firefly luciferase reporter, luminescence/redox ratio. activity score, % at 18.7 µM. 0.13% of 350,000 active. AID 602363;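 active = replicate mean at a twofold rise or more, about +100% in these data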;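 also: firefly luciferase made from a UUG start codon reports start codon fidelity; reporter light over untreated wells divided by growth signal over untreated wells; some hits fall short of that in this replicate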
A number is an active result; i = inactive; nt = no result; ! = repeats disagree. An excerpt weighted towards active compounds, which were near 1.5% of everything screened.

SMILES | RAD52 anneal inh | INS-1E GSIS act | RAD54 inh | Casp6 inh | PglD inh | Yeast UUG start
Nc1ccc(C(=O)O)cc1S(=O)(=O)O | i | i | i | i | i | i
O=[N+]([O-])c1ccccc1S(=O)(=O)Nc1ccc(-c2ccc(N3CCOCC3)nn2)cc1 | i | 71 | i | i | i | i
CCNC(=O)C1(C)CCN(C(=O)c2ccc(C(=O)OC)cc2)C1 (configuration not stated) | i | i | i | i | i | i
CCCOc1ccc(/C=N/NC(=O)C(=O)Nc2ccccn2)cc1 | nt | 52 | i | nt | i | i
CCN(CC)Cc1nc2c(c(=O)[nH]1)C1(CCCC1)Cc1ccccc1-2 | nt | nt | i | nt | i | i
CCN(C(=O)CSc1ncccn1)c1cccc2ccccc12 | i | 48 | i | i | i | i
Cc1cccc(-c2nc(CCNC(=O)c3ccco3)cs2)c1 | i | nt | i | 42 | i | i
CC(C)(C)NC(=O)C(c1ccccc1)N(C(=O)c1ccco1)C1CC1 (configuration not stated) | nt | nt | i | nt | i | i
CCOc1ccc(S(=O)(=O)Nc2cc(NS(=O)(=O)c3ccc(OCC)cc3)cc(C(=O)O)c2)cc1 | i | i | i | 70 | i | i
CCOc1ccc(NS(=O)(=O)c2ccc(NS(=O)(=O)c3ccccc3)cc2)cc1 | nt | i | i | nt | i | i
Cc1ccccc1-c1nnc(SCC(=O)Nc2cccnc2Cl)o1 | i | i | i | i | i | i
CCCCNC(=S)N1CCN(CC)CC1 | i | i | i | 45 | i | i
CCOCCCNC(=S)N1CCN(CC)CC1 | i | i | nt | i | nt | nt
Cc1cc(C=O)c(C)n1-c1ccc(N2CCOCC2)c([N+](=O)[O-])c1 | i | i | nt | i | nt | nt
CCCCCCCCC(=O)c1c(OC)oc(C=O)cc1=O | i | nt | i | 72 | i | i
COc1ccc(CN(C)C[C@H]2Oc3c(NC(=O)NC(C)C)cccc3C(=O)N([C@@H](C)CO)C[C@H]2C)cc1 | i | i | i | i | 16 | i
C[C@@H]1CN([C@@H](C)CO)C(=O)c2cc(NC(=O)Nc3ccc(F)cc3)ccc2O[C@@H]1CN(C)CC1CCCCC1 | i | i | i | i | 17 | i
COc1ccc(CN(C)C[C@@H]2Oc3ccc(NC(=O)Nc4ccc(F)cc4)cc3C(=O)N([C@H](C)CO)C[C@H]2C)cc1 | i | i | 72 | i | i | i
COc1ccc(CN(C)C[C@H]2Oc3c(NC(=O)NC(C)C)cccc3C(=O)N([C@@H](C)CO)C[C@@H]2C)cc1 | i | i | i | i | i | i
CC(NS(=O)(=O)c1ccc(CCC(=O)N2CCN(C)CC2)cc1)c1ccccc1 (configuration not stated) | nt | nt | i | nt | i | i
Cc1ccc(S(=O)(=O)NCCNc2ccccc2[N+](=O)[O-])cc1 | i | i | nt | i | nt | nt
CC(=O)N(C(C)=O)N1C(=O)C2C3c4ccccc4C(c4ccccc43)C2C1=O (configuration not stated) | i | i | nt | i | nt | nt
CN1C(=O)C2C3c4ccccc4C(c4ccccc43)[C@@H]2C1=O (some centres not stated) | i | 71 | i | i | i | i
CCS(=O)(=O)Nc1ccc2c(c1)C(=O)N(C)C[C@H](OC)[C@H](C)CN(Cc1nccs1)[C@H](C)CO2 | i | i | i | i | i | i
COc1ccc(CNS(=O)(=O)c2ccc3c(c2)CC(C)N3C(=O)C2CC2)cc1 (configuration not stated) | i | i | i | i | i | i
SMILES | RAD52 anneal inh | INS-1E GSIS act | RAD54 inh | Casp6 inh | PglD inh | Yeast UUG start
CCOC(=O)c1oc2ccccc2c1NC(=O)COc1ccc(F)cc1 | i | i | i | i | i | i
CCCC(=O)Nc1c(C(=O)OCC)oc2ccccc12 | i | 41 | i | i | i | i
N#Cc1nc(NCC(F)F)nc(Nc2cc(F)cc(F)c2)n1 | nt | i | i | nt | i | i
O=C1C=C(NCc2ccccc2)c2ccccc2C1=O | i | i | nt | 80 | nt | nt
CCOc1ccc(NC2=CC(=O)C(=O)c3ccccc32)cc1 | i | i | nt | i | nt | nt
O=C1C=C(Nc2cccnc2)c2ccccc2C1=O | i | i | nt | 96 | nt | nt
O=C1C=C(Nc2ccc(F)cc2)c2ccccc2C1=O | i | i | i | 40 | i | i
O=C1C=C(Nc2ccccc2O)c2ccccc2C1=O | i | i | i | 41 | i | i
O=c1cccccc1NCc1ccccc1 | i | i | i | i | i | i
CCCC(=O)Oc1c(S(=O)(=O)c2ccc(C)cc2)c(C)nn1C(C)(C)C | i | i | i | i | i | i
CC1CCN(C(=O)c2cccc(S(=O)(=O)N3CCN(c4ccccc4)CC3)c2)CC1 | i | 42 | nt | i | nt | nt
O=C(c1cccc(S(=O)(=O)N2CCCCC2)c1)N1CCN(c2ccccc2)CC1 | i | i | i | i | i | i
Cc1ccc(NC(=O)CCC(=O)NNC(=O)NC23CC4CC(CC(C4)C2)C3)cc1C | i | i | nt | i | nt | nt
O=C(N/N=C/c1ccc(O)c(O)c1)N/N=C/c1ccc(O)c(O)c1 | i | i | i | 75 | i | i
Cc1nonc1C(=O)N/N=C/c1ccc(O)c(O)c1 | nt | i | i | nt | i | i
O=C(CSc1nc2ccccc2o1)N/N=C/c1ccc(O)c(O)c1 | i | i | i | 63 | i | i
COc1cc(-c2nnc(COC(=O)c3ccc(C)o3)o2)cc(OC)c1OC | i | i | i | 35 | i | i
COc1cc(-c2nnc(COC(=O)c3cc(C)no3)o2)cc(OC)c1OC | i | i | i | i | i | i
COc1ccc(-c2ccc(C3[C@H]4CNC[C@@H]3N4C(=O)Nc3ccc(F)cc3)cc2)cc1 (some centres not stated) | i | i | nt | i | nt | nt
COc1cccc(NC(=O)N2[C@@H]3CNC[C@H]2C3c2ccc(-c3cccc(OC)c3)cc2)c1 (some centres not stated) | 66! | i | nt | i | nt | nt
COc1cccc(-c2ccc(C3[C@H]4CNC[C@@H]3N4S(=O)(=O)c3cccc(Cl)c3)cc2)c1 (some centres not stated) | 53 | i | nt | i | nt | nt
COc1cccc(-c2ccc(C3[C@H]4CNC[C@@H]3N4C(=O)Nc3ccccc3Cl)cc2)c1 (some centres not stated) | 51! | i | nt | i | nt | nt
COc1cccc(NC(=O)N2[C@@H]3CNC[C@H]2C3c2ccc(-c3cccnc3)cc2)c1 (some centres not stated) | i | i | nt | i | nt | nt
COc1ccc(-c2ccc(C3[C@H]4CNC[C@@H]3N4C(=O)Nc3cccc(OC)c3)cc2)cc1 (some centres not stated) | 67! | i | nt | i | nt | nt
CCCc1cc(C(=O)Nc2sc3c(c2C(=O)OCC)CCCC3)no1 | i | nt | i | i | i | i
